# Earlier results, collected in patent US5202314A, “10-thioethyl-steroids” (Roussel Uclaf, priority 1991, dated 1993).
# Tested on: Aromatase
# Details: attacks enzymatic processes other than that leading from androgens to estrogens; cited from earlier work
smiles,measurement,value
CCC1(c2ccc(N)cc2)CCC(=O)NC1=O (stereo not shown) [Aminoglutethimide],specificity to Aromatase,not to be specific to Aromatase
